## Yeast mating assay 2: variants of the scFv Ab-95

From the AlphaSeq antibody data of Engelhart et al. 2022 (doi:10.1038/s41597-022-01779-4), copy in the FLAb collection.

Target peptide (SARS-CoV-2 spike, HR2 region): PDVDLGDISGINAS

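The starting antibody came from a phage panning campaign against this peptide. Variants in AAYL52 differ from the parent at up to three CDR positions; double and triple changes were sampled at random. In AlphaSeq, yeast of one mating type display the scFv and yeast of the other type display the target. Mating (16 h, 30 °C) was followed by selection of diploids and sequencing of their barcodes. Read counts were normalised to the haploid input and turned into Kd by a linear fit to BCL2-family pairs of known affinity, for each replicate. There are three technical replicates.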

Parent scFv Ab-95: VH joined to VL by three GGGGS repeats. Changes lie in the light chain CDRs alone.
VH: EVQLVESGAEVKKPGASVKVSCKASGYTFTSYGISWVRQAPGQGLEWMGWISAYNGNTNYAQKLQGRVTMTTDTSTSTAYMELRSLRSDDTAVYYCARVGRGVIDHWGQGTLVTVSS
VL: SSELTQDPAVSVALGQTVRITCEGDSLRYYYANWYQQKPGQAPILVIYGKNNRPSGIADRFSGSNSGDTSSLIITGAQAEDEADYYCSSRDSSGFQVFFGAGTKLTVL

Substitutions are numbered in sequence along the VL above, starting at 1 (not Kabat). Affinities are written as log10 Kd with Kd in nM; a lower number is a better binder. "nd" means that the variant was in the library but no mating with the target was seen in that replicate; the authors take this as a sign of poor binding, and no number exists. Background: pairings of library AAYL52 with three empty control strains gave a value in 28% of cases (median 3.91, 5th percentile 2.90). Values in that range, when seen in few replicates, are hard to tell from nonspecific mating. Also given: how often the same scFv was detected with the empty control strains.

For P54H, the assay gave 3.40, 3.17, 3.76 (controls 3 of 9).
For G24L Y31G, the assay gave 2.55, 2.42, 2.47 (controls 3 of 9).
For E23F S88D S93V, the assay gave 3.07, 1.64, 2.27 (controls 2 of 9).
For G24A G49Y S55Y, the assay gave nd, nd, nd (controls 0 of 9).
For N33K R90V S93G, the assay gave nd, 4.33, nd (controls 0 of 9).
For N33P R53A S88P, the assay gave 4.05, nd, 4.13 (controls 3 of 9).
For Y31H N51H D91K, the assay gave 3.57, 3.23, 3.32 (controls 0 of 9).
For G49E Q96C, the assay gave 3.60, 3.89, 2.79 (controls 1 of 9).
For S88M S92A F95A, the assay gave 1.35, 1.46, 0.82 (controls 5 of 9).
For S26L R28A S93H, the assay gave 3.67, nd, 3.65 (controls 5 of 9).
For N33F V97C F98S, the assay gave 1.10, 0.86, 1.01 (controls 3 of 9).
For G49I K50W R53H, the assay gave nd, 2.91, 3.44 (controls 0 of 9).
For R28H Y30H Y31W, the assay gave 2.38, 2.08, 2.59 (controls 3 of 9).
For Y31V S55H S88E, the assay gave 2.33, 2.68, 1.60 (controls 3 of 9).
For D25Y D91P G94P, the assay gave 4.55, nd, 4.13 (controls 3 of 9).
For S26I A32Q S93L, the assay gave nd, nd, nd (controls 0 of 9).
For S55M S88V G94L, the assay gave 3.86, 2.51, 2.11 (controls 4 of 9).
For S26M Y29E F95R, the assay gave 2.96, 5.58, 3.05 (controls 4 of 9).
For K50F R53F P54D, the assay gave 4.05, nd, 3.62 (controls 1 of 9).
For D25Q L27N Y30H, the assay gave 2.50, 2.44, 2.35 (controls 3 of 9).
For L27R Y30C S89H, the assay gave 3.88, 5.41, nd (controls 3 of 9).
For E23Y Q96F, the assay gave 4.16, 4.24, nd (controls 2 of 9).
For Y29A R53V, the assay gave 3.45, 3.02, 3.09 (controls 2 of 9).
For Y29W, the assay gave 1.84, 1.27, 0.84 (controls 1 of 9).
For K50C S88N S93T, the assay gave nd, 3.94, nd (controls 1 of 9).
For E23P R28K Y31I, the assay gave 3.38, 2.86, 2.34 (controls 7 of 9).
For L27M N51K G94W, the assay gave nd, nd, nd (controls 1 of 9).
For Y29I Y31M S55Q, the assay gave 5.45, 3.44, 4.33 (controls 2 of 9).
For S26M N33V N51P, the assay gave 4.02, 5.44, nd (controls 5 of 9).
For G24Q Y30C V97K, the assay gave 3.79, nd, nd (controls 3 of 9).
For N33S P54H Q96G, the assay gave nd, 4.12, nd (controls 2 of 9).
For N33Q G49R P54N, the assay gave 5.09, 4.04, 4.28 (controls 1 of 9).
For Y31G N51T S89D, the assay gave 2.49, 2.95, 2.35 (controls 2 of 9).
For D25M S92E, the assay gave 2.22, 2.36, 2.22 (controls 1 of 9).
For G24K Y30W R53T, the assay gave 2.02, 2.20, 1.66 (controls 1 of 9).
For E23A N52G Q96A, the assay gave 2.53, 2.49, 2.41 (controls 5 of 9).
For Y30A Q96I, the assay gave 1.73, 1.65, 1.71 (controls 2 of 9).
For E23Q K50P S89F, the assay gave nd, nd, nd (controls 2 of 9).
For Y31H S55W S88N, the assay gave 2.62, 2.26, 2.72 (controls 1 of 9).
For Y31H P54A G94M, the assay gave 2.75, 3.24, 3.49 (controls 4 of 9).
For N33K G94S Q96L, the assay gave nd, nd, nd (controls 0 of 9).
For D25W S88D R90G, the assay gave 2.96, 4.71, 3.56 (controls 5 of 9).
For E23K D25R S89E, the assay gave 3.16, 3.02, 2.39 (controls 1 of 9).
For P54V S93K F98H, the assay gave 2.73, 3.36, 2.71 (controls 1 of 9).
For G49M R53Y Q96A, the assay gave 4.12, 5.81, 3.55 (controls 2 of 9).
For S26T N52P S93G, the assay gave nd, nd, nd (controls 1 of 9).
For Y31C N33K Q96G, the assay gave nd, nd, nd (controls 2 of 9).
For D25I Y31E R90E, the assay gave nd, 3.41, nd (controls 0 of 9).
For R28C S55E F98S, the assay gave nd, nd, nd (controls 1 of 9).
For R53I F95T F98P, the assay gave 3.94, 3.53, 3.40 (controls 6 of 9).
For L27W F95A Q96L, the assay gave nd, nd, nd (controls 1 of 9).
For F95I Q96S V97C, the assay gave 3.68, 3.38, 2.38 (controls 6 of 9).